Reference: US10961241B2, “Chemical compounds” (AstraZeneca AB, priority 2016, dated 2021)

Protein sequences, listed by entry. Tags and fused reporters are not part of them.
UniProt P03372, whole entry: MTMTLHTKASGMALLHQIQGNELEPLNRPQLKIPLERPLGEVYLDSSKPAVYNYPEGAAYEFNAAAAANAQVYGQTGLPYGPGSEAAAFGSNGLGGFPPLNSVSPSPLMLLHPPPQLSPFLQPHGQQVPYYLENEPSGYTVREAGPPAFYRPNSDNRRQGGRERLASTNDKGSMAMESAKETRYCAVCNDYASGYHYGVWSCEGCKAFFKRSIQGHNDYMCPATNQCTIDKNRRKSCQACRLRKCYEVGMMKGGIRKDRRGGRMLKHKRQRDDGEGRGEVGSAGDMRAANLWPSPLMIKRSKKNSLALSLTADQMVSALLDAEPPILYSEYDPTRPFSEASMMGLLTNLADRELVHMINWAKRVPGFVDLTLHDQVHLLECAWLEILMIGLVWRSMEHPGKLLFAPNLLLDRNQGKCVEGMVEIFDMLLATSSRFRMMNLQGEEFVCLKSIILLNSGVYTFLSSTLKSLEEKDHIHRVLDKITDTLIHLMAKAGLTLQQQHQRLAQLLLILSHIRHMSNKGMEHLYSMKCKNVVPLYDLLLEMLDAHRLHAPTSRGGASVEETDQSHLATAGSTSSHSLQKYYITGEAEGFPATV

Biological target: ERα receptor in MCF-7 cells (Homo sapiens (Human), UniProt P03372)
Assay: MCF-7 ER down-regulation assay (immuno-fluorescence)
Type: cell-based
Settings: shown in parentheses
Procedure: The Echo uses acoustic technology to perform direct microplate-to-microplate transfers of DMSO compound solutions to assay plates. […] Cells were fixed at room temperature for 20 mins before being washed two times with 250 μL PBS/Proclin (PBS with a Biocide preservative) using a BioTek platewasher, 40 μL of PBS/Proclin was then added to all wells and the plates stored at 4° C. The fixing method described above was carried out on the Integrated Echo 2 workcell. Immunostaining was performed using an automated AutoElisa workcell. […] The plates were incubated overnight at 4° C. […] The mean total intensity was normalized for cell number giving the total intensity per cell. The data was exported into a suitable software package (such as Origin) to perform curve fitting analysis.

% downregulation in the ER down-regulation assay: 83%
SMILES: COC[C@](C)(F)CN1[C@H](c2ccc(OC3CN(CCCF)C3)cc2OC)c2ccc3[nH]ncc3c2C[C@H]1C (single isomer, unassigned) [Example 12]
